# Test results as given in patent US20260209220A1, “SUBSTITUTED TETRAHYDROPYRROLO-PYRIDINONE COMPOUNDS AND THEIR USE IN TREATING MEDICAL CONDITIONS” (Karuna Therapeutics, Inc., priority 2022, published 2026).
# By UniProt entry, the sequences of proteins in these tests, tags left out.
# UniProt P08173, whole entry: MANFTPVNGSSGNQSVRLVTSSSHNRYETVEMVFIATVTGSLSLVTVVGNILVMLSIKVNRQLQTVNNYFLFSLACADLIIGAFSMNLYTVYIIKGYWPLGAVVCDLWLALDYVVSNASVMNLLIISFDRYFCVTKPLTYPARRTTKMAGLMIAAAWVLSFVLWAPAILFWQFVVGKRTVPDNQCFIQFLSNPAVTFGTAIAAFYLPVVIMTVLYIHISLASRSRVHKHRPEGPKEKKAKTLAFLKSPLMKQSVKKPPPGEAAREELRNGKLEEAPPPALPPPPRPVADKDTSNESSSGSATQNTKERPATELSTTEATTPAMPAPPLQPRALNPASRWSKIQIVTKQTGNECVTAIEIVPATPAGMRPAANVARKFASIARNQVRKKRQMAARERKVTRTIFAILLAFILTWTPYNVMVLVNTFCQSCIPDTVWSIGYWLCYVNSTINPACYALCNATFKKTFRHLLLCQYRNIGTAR
# UniProt P08485, whole entry: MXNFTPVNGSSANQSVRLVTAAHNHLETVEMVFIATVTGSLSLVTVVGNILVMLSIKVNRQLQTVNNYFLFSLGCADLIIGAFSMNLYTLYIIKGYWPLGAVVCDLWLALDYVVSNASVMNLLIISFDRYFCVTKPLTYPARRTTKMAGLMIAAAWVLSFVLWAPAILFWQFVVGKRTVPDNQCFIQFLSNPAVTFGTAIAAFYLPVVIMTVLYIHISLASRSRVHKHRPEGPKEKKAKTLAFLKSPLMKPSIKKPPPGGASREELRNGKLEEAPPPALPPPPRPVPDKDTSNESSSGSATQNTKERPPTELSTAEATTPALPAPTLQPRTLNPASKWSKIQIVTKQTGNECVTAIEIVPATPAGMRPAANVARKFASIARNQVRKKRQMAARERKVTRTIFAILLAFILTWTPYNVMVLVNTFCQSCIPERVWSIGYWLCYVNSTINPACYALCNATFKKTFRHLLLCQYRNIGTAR
# Legend:
# human M4 receptor = human M4 receptor (Homo sapiens, UniProt P08173); assay: M4 GTPγS PAM assay (CHO-K1 membranes, 35S-GTP binding, with EC20 acetylcholine); settings: read-out: Human M4 PAM GTPγS EC50, with EC20 acetylcholine (40 nM)
# Protocol: The M4 GTPγS PAM method was used. Membranes were prepared for GTPgS binding assays from CHO-K1 cells stably expressing human M4 receptor. Briefly, cells were grown in 5-layer cell culture flasks. Cells were washed with 50 mL of PBS and then dissociated with 0.05% trypsin. Dissociated cells were then collected by centrifugation at 650×g for 8 minutes at 4° C. Pellets were washed again in PBS by centrifugation and resuspended in 30 mL of 20 mM HEPES, 10 mM EDTA, pH 7.4. After sitting on ice for 30 min, membranes were collected by centrifugation at 50000×g for 15′ at 4° C., resuspended in 30 mL of 20 mM HEPES, 0.1 mM EDTA, pH 7.4 and collected again by centrifugation. Pellets were then washed twice by centrifugation in 30 mL of 20 mM HEPES, pH 7.4, and stored at −80° C. until the day of the assay. On the day of the assay, pellets were thawed on ice and resuspended in 1 mL of 20 mM HEPES, pH 7.4, 10 mM MgCl2, 100 mM NaCl using dounce homogenization. Membrane protein concentration is determined by BCA protein assay (Promega, Madison, WI) according to Promega guidelines. […]
# Plates were then incubated, with shaking, for an additional 10-15 minutes. […] Plates are top and bottom sealed before being read on TopCount scintillation counter (Perkin Elmer, Waltham, MA).
# hM4 receptors = hM4 receptors (Homo sapiens, UniProt P08173); assay: Human M4 PAM PERK assay (CHO cells, TR-FRET, with EC20 acetylcholine); settings: read-out: Human M4 PAM pERK EC50
# Protocol: (§1) Chinese hamster ovary (CHO) cells expressing either hM4 or rM4 receptors were frozen in assay ready vials (5×10^6 cells/vial) after bulking-up in culture. The day before an assay, vial(s) were thawed and cells seeded in 384 well white proxiplates at 1000/well for hM4 cells and at 2000/well for rM4 cells, in 10 μL of growth media (Hams/F12 with glutamax and 10% FCS) and incubated overnight at 37° C./5% CO2.
# (§2) On the following morning, the growth media was removed by ‘flicking out’ over a bin, patting the inverted plate onto tissue, and then replacing with 10 μL of wash media (Hams/F12 with glutamax and 8 mM HEPES, NB: serum free). Then, the wash media was removed in the same way and replaced with 8 μL/well of the serum free media. Plates were then re-incubated for a further 4 hours at 37° C./5% CO2. […]
# (§3) After the 4-hour incubation in serum free media, a 4 μL aliquot of the 3×compound solution containing an EC20 of acetylcholine (10 nM final concentration) was added to the cell plate using a 384 well plate to plate transfer. […] Then, a final addition of 4 μL/well of antibody detection mix, containing both the Europium-Cryptate (donor) and d2 (acceptor) tagged detection components, was added followed by a further 2-hour incubation at RT, and then the plate was read using a TR-FRET (time resolved fluorescence resonance energy transfer) based protocol.
# rM4 receptors = rM4 receptors (Rattus norvegicus, UniProt P08485); assay: Rat M4 PAM PERK assay (CHO cells, TR-FRET, with EC20 acetylcholine); settings: read-out: Rat M4 PAM pERK EC50
# Protocol: as §1, §2, §3
compound,measurement,setting,value
Cc1c2c(n(CC3CC3)c(=O)c1Cl)CN(C(=O)CC1CN(c3cncnc3)C1)C2,EC50,human M4 receptor,50 to 200 nM
same,EC50,hM4 receptors,< 50 nM
same,EC50,rM4 receptors,50 to 200 nM
